For assay [1], the system named is Mus musculus. The assay is described as follows: The percent increase in life span was measured using CD2F1 male mice at 200 mg/kg dose.
The subject of assay [2] is Mus musculus. The experiment in a line: %Survival of compound was measured using CD2F1 male mice in group of ten at 200 mg/kg dose on day 30.
In assay [3] the test system is Mus musculus. The experiment in a line: Mean survival time of compound was measured using CD2F1 male mice in group of ten at 200 mg/kg dose on day 30.
Assay [4] in a line: Mean survival time of treated group(T) and Mean survival time of control group(C) was measured using CD2F1 male mice at 200 mg/kg dose.

Each structure is given as a SMILES string.

On to `NCCCNCCSP(=O)(Oc1ccc(Cl)cc1)SCCNCCCN`, for which the ILS (in general, how much longer treated animals lived than controls) in assay [1] came to 170%. In assay [2], the Survival came out at 40%. The same compound gave an MST in assay [3] of 20. The Ratio in assay [4] worked out at 1.94.
